# Data reported in PMC7175131, “Synthesis, In Vitro Evaluation and Molecular Docking of the 5-Acetyl-2-aryl-6-hydroxybenzo[b]furans against Multiple Targets Linked to Type 2 Diabetes” (Biomolecules, 2020).
# Biological target: T1, PTP1B (Homo sapiens, UniProt P18031)
# T1 construct: purchased Sigma Aldrich, Modderfontein, South Africa
# T1 sequence (P18031 1-435): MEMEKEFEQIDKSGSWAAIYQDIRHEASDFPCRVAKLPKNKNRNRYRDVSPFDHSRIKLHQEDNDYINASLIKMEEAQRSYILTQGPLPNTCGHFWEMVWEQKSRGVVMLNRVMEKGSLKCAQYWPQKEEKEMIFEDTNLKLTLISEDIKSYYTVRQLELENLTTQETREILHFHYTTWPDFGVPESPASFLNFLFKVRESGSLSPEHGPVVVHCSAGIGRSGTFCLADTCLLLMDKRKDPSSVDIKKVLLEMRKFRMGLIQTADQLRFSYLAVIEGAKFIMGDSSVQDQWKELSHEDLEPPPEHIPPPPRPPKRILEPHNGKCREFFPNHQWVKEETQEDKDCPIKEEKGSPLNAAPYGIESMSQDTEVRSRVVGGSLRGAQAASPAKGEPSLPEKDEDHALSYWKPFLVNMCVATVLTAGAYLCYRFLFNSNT
# Assay: PTP1B inhibition assay (pNPP substrate)
# Assay type: biochemical
# Conditions: Hepes buffer pH 7.0, triplicate
# Method: Activity of PTPase (Sigma Aldrich, Modderfontein, South Africa) was evaluated using p-nitrophenylphosphate (PNPP) as the substrate. […] The reaction was stopped by the addition of 30 μL of 3 M NaOH and absorbance was determined at wavelength of 410 nm. Control tubes without the enzyme were ran in parallel to nullify the nonenzymatic reaction and for calculating the concentration of p-nitrophenolate ions produced in the reaction mixture.
substance,measurement,setting,value
"sodium vanadate [Na2VO4, reference compound]",IC50,,38.42 ± 0.28 µM
same,IC50,listed as sodium vanadate,38.4 µM
